Laboratory results: PubChem BioAssay AID2576 (National Center for Advancing Translational Sciences (NCATS), 2010)
The list shows a part of the results, in another mix than the full data. Inconclusive results are not listed. Calls of active or inactive are those of the source. The call rests on the fitted dose curve; in most records, active means well fitted activation curve with a large enough effect; inconclusive means small, poorly fitted or top-dose-only effect, or effect the other way; inactive means flat fitted curve, though single readings scatter.

The chains behind the UniProt entries cited, without tags or fusion partners.
UniProt P14618, whole entry, looked up: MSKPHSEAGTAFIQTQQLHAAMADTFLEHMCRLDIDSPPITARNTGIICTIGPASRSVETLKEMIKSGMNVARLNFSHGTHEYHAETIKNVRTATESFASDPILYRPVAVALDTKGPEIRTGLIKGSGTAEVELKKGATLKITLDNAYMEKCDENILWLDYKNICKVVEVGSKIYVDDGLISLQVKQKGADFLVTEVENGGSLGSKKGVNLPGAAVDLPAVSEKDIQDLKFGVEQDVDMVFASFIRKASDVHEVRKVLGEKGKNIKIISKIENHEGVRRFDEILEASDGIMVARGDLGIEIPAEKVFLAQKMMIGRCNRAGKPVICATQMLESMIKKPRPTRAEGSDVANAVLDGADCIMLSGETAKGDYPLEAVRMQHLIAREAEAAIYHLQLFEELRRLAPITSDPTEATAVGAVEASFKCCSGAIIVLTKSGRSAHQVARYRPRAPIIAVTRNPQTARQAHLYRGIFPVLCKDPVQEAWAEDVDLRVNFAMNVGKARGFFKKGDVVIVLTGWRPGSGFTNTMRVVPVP

target: Pyruvate kinase PKM (Homo sapiens) (UniProt P14618); assay: Secondary LDH Assay for Activators of Human Pyruvate Kinase M2 isoform: for Probe SAR; conditions: purified hPK-M2, LDH-coupled NADH fluorescence kinetic
Description: NIH Chemical Genomics Center [NCGC] Matthew G. Vander Heiden, M.D., Ph.D. [Harvard Medical School, 77 Avenue Louis Pasteur, Boston, MA 02115] NCGC Assay Overview: Human pyruvate kinase muscle 2 (hPK-M2)enzyme was supplied as a highly purified (>95% pure) preparation from Harvard Medical School and a secondary assay was used to evaluate compounds. This assay couples the formation of pyruvate from hPK-M2 using lactate dehydrogenase (LDH) and NADH. The depletion of NADH is followed in a fluorescent-based kinetic assay that follows the formation of pyruvate to lactate, as catalyzed LDH (described by Hannaert et al., 2002)1 Pyruvate kinase substrates, PEP and ADP, were present in the assay at 0.1 mM and 4 mM respectively. In this kinetic assay initial rates were determined by following the fluorescence of NADH depletion.
NCGC Assay Protocol Summary: Three uL of substrate mix (final concentration, 50 mM Tris-Cl pH 8.0, 200 mM KCl, 15 mM MgCl2, 0.1 mM PEP, 4.0 mM ADP, and 0.2 mM NADH) was dispensed into black-solid 1536 well plates. 23 nL of compounds were delivered by a pin tool and 1 uL of enzyme mix (final concentrations, 10 nM hPK-M2 and 1 uM of LDH) was added. Plates were immediately placed in ViewLux (Perkin Elmer) and NADH fluorescence was determined at 30 second exposure intervals for between 3 and 6 minutes. […]

SMILES	Potency
Nc1cccc(S(=O)(=O)N2CCCN(S(=O)(=O)c3ccc4c(c3)OCCO4)CC2)c1	active: 91.9 nM
